Test results as given in patent publication US7087424B1, “Method of controlling fungal pathogens, and agents useful for same” (priority 1999, dated 2006).

What was measured:
solubility = type: physicochemical; settings: in water
From the text: Phenazine-1-carboxylic acid (PCA) is a pigmented greenish-yellow antibiotic which accumulates in cultures of P. fluorescens strain 2-79 (Gurusiddaiah et al, 1986). […] In contrast, the anti-fungal compound produced by Pseudomonas strain AN5 is highly-soluble in water. Moreover, Pseudomonas strain AN5 does produce coloured pigments while growing in media. Similarly, 2,4-diacetylphloroglucinol-producing strains of Pseudomonas sp. produce red pigments when grown on King's B medium (Keel et al, 1996). In contrast, no coloured substances were produced by Pseudomonas strain AN5 when grown on King's medium (FIG. 7).

take-all fungus = test: agar overlay / PDA plate bioassay against take-all fungus; type: cell-based, G. graminis var tritici
From the text: A modification of the agar plug assay (Poplawsky et al., 1988) was used to assay for bioactivity of extracts of Pseudomonas strain AN5, or derivative strains thereof, against take-all fungus, wherein an agar overlay assay was used to test activity of specific fractions. This assay involves macerating the take-all fungus grown in Potato Dextrose (PD) broth and seeding it to a Potato Dextrose Agar (PDA) overlay. This PDA overlay was poured onto thick PDA plates. Fractions to be tested for activity were spotted on top of the overlay, and the plates were dried and incubated at 16° C. for 3–5 days.
Active fractions were identified by the appearance of a clearance zone in the plates, within an opaque background of cultured fungus.

Compound | solubility (solubility) | biological activity against take-all relative to gluconic acid (take-all fungus)
O=C(O)[C@H](O)[C@@H](O)[C@H](O)[C@H](O)CO | highly-soluble | –
O=C(O)[C@@H](O)[C@@H](O)[C@H](O)[C@H](O)CO [mannonic acid] | – | not as strong as gluconic acid
